Key:
[1] = test system: cancer and multiple myeloma cells; conditions: in combination with proteasome inhibitors; cited from earlier work
[2] = test system: sodium channel; conditions: role: inhibitor; topical anesthesia to mucous membranes; cited from earlier work
[3] = topical treatment of patients suffering from palmo-plantar erythrodysesthesia (hand-foot syndrome), Examples 1-6
From the text: In the present invention, the term “hand-foot syndrome” (also called “palmo-plantar erythrodysesthesia”) refers to a skin reaction on the palms of the hands and/or the soles of the feet as a result of certain cancer treatments. Grading of hand-foot syndrome according to the CTCAE (Common Terminology Criteria for Adverse Events) is as follows:
A patient suffered from a metastatic pancreatic cancer. They developed a severe and painful palmo-plantar erythrodysesthesia under FOLFIRINOX therapy with painful onycholysis with oozing, paronychia, skin desquamation and neuropathic pain.
(§1) They were treated with a cream of dyclonine 4% applied locally twice a day.
A patient suffered from pancreatic cancer. They developed a severe and painful palmo-plantar erythrodysesthesia under FOLFIRINOX therapy with painful nail detachment, hyperkeratosis, skin desquamation, neuropathic pain.
as §1
A patient suffered from breast cancer. They developed a painful palmo-plantar erythrodysesthesia under taxane therapy with painful onycholysis (hands and feet), hyperkeratosis and neuropathic pain.
A patient suffered from colon cancer. They developed a painful palmo-plantar erythrodysesthesia under capecitabine therapy with painful onycholysis (hands and feet), hyperkeratosis and neuropathic pain.
(§2) A patient suffered from breast cancer. They developed a painful palmo-plantar erythrodysesthesia under xeloda (capecitabine) therapy.
They were treated with a cream of dyclonine 6% applied locally twice a day.
as §2

[4] = Example 1, cream of dyclonine 4%, applied locally twice a day, metastatic pancreatic cancer, FOLFIRINOX, after 1 month of use
[5] = Example 2, cream of dyclonine 4%, applied locally twice a day, pancreatic cancer, FOLFIRINOX, after 3 weeks of use
[6] = Example 3, cream of dyclonine 4%, applied locally twice a day, breast cancer, taxane therapy, after 3 weeks of use
[7] = Example 4, cream of dyclonine 4%, applied locally twice a day, colon cancer, capecitabine, after 1 month of use
[8] = Example 5, cream of dyclonine 6%, applied locally twice a day, breast cancer, xeloda (capecitabine), after 1 month of use
[9] = Example 6, cream of dyclonine 4%, applied locally twice a day, breast cancer, xeloda (capecitabine), after 3 months of use

In the case of `CCCCOc1ccc(C(=O)CCN2CCCCC2)cc1`, the “cytotoxic effect of proteasome inhibitors” value [1] is given as “enhances the cytotoxic effect”, the sodium channel inhibition [2] is given as “sodium channel inhibition” and the “improvement of the patient” value [3, 4] is given as “improvement”. For the same molecule, the “oozing lesions under the nails” value [3, 4] was “drying”, the pain [3, 4] was “almost complete disappearance” and the paronychia [3, 4] was “great improvement”. For the same molecule, the hyperkeratosis [3, 5] was “disappearance”, the “improvement of the patient” value [3, 5] was “improvement” and the neuropathic pain [3, 5] was “improvement”. For the same molecule, the skin desquamation [3, 5] was “improvement”, the hyperkeratosis [3, 6] was “almost complete disappearance” and the “improvement of the patient” value [3, 6] was “improvement”. The neuropathic pain [3, 6] was “improvement”, the skin desquamation [3, 6] was “improvement” and the hyperkeratosis [3, 7] was “almost complete relief”. The “improvement of the patient” value [3, 7] was “improvement”, the neuropathic pain [3, 7] was “almost complete relief” and the hyperkeratosis [3, 8] was “almost complete disappearance”. For the same molecule, the “improvement of the patient” value [3, 8] was “improvement”, the neuropathic pain [3, 8] was “improvement” and the skin desquamation [3, 8] was “improvement”. The hyperkeratosis [3, 9] was “almost complete disappearance”, the “improvement of the patient” value [3, 9] was “improvement” and the neuropathic pain [3, 9] was “improvement”. The skin desquamation [3, 9] was “improvement” and the “pain and damages of the skin, in particular hyperkeratosis” value ([3]; general statement, topical administration, patients suffering from hand-foot syndrome) was “reduces the pain and the damages of the skin”.

Reference: patent publication US20260382587A1, “DYCLONINE FOR USE IN THE TOPICAL TREATMENT OF HAND-FOOT SYNDROME” (published 2026)
